In US7351800B2, “Stabilized albumin preparations” (Nipro Corporation, priority 2002, dated 2008):

Experiments:
Assay type in all cases: physicochemical
HSA [1] = target: T1, HSA (Homo sapiens, UniProt P02768); assay: NATIVE-PAGE of HSA after heat treatment at 60° C. for 30 minutes (aggregate inhibition); conditions: 24-μM HSA, phosphate buffer 67 mM pH 7.4, heat treatment 60° C. for 30 minutes
HSA [2] = target: T1, HSA; assay: Differential scanning calorimetry (DSC) of HSA solutions: thermal stabilization effect
HSA [3] = target: T1, HSA; assay: Abundance ratio of mercapto type and non-mercapto type of HSA by HPLC after AAPH oxidation; conditions: 24-μM HSA, 120 μM of each agent, AAPH added, 280-nm UV
[4] = DSC, 100-μM HSA, 500-μM of each added agent, phosphate buffer pH 7.4, scanning rate 1 K/min

## medical agent under test (1) (no medical agent added): 24-μM HSA in phosphate buffer (67 mM, pH 7.4), Experimental Example 2
HSA [1]
  aggregates / aggregate-inhibition effect in NATIVE-PAGE: a large quantity of aggregates

## (1) HSA: 100-μM solution of degreased genetically engineered human serum albumin in phosphate buffer pH 7.4, no stabilizer
HSA [2]; [4]
  Tm (thermal transition temperature): 59.50 °C
  Δhcal (change in enthalpy of transition): 1.64 10^5kcal/mol
HSA [2]; albumin solution cooled after first DSC measurement and heated again
  heating temperature up to which thermal transition is reversible without irreversible denaturation: up to 85 °C

## medical agent under test (1): 24-μM HSA phosphate buffer with AAPH, no stabilizer, Experimental Example 4
HSA [3]
  change in abundance ratio between mercapto type and non-mercapto type of HSA: a decrease in mercapto type and an increase in non-mercapto type
